PubChem AID 2061109: pyroptosis screen in mouse bone marrow macrophages, one dose (5 µM).
Target pathway: NLRP3 inflammasome, triggered by LPS and nigericin. Dead cells counted by propidium iodide.
Higher is more protection: 100% equals untreated cells, 0% the stimulated control, negative values set to 0. Active call (*): above 70%. Part of the library is listed.

Structure (SMILES) | inhibition [%]
CN1C(C(=O)Nc2nccs2)=C(O)c2ccccc2S1(=O)=O | 56.9
COc1cc2c(cc1OC)-c1cc3ccc(OC)c(OC)c3c[n+]1CC2 | 74.7*
CC1(C)C[C@@H]1C(=O)N/C(=C\CCCCSC[C@H](N)C(=O)O)C(=O)O | 0.0
Cc1nc(N2CCN(C)CC2)c2oc3ccc(Cl)cc3c2n1 | 0.0
C=CC(=O)Nc1cccc(Oc2nc(Nc3ccc(N4CCN(C)CC4)cc3)nc3ccsc23)c1 | 0.0
CC(C)(C)c1cc(C(=O)/C(C#N)=N/Nc2cccc(Cl)c2)no1 | 0.0
CN(C)c1ccc(-c2nc3ccc(F)cc3[nH]2)cc1 | 21.0
CC(CN(C)C)CN1c2ccccc2CCc2ccccc21.O=C(O)/C=C\C(=O)O | 1.9
O=C(Cn1c(CCNCC(=O)c2ccccc2)nc2ccccc21)Nc1ccc2c(c1)CCC2 | 14.2
CC(=O)N1CCN(c2ccc([N+](=O)[O-])c(-c3ccc(F)c(C=C4SC(=O)NC4=O)c3)n2)CC1 | 9.6
CCN(CC)CCOC(=O)C1(C2CCCCC2)CCCCC1.Cl | 0.0
Cc1[nH]c(/C=C2\C(=O)Nc3ccccc32)c(C)c1CCC(=O)O | 52.3
CCCSc1nc(N2CCC[C@@H](CC(=O)O)C2)ccc1C(=O)NC1CCCCC1 | 0.0
CCCCCCCc1cc(=O)c2ccccc2n1O | 66.7
COc1cc2c(cc1OC)CN(CCc1ccc(-n3nnc(-c4cc(OC)c(OC)cc4NC(=O)c4cc(=O)c5ccccc5o4)n3)cc1)CC2.CS(=O)(=O)O.O | 50.7
NC(=O)c1cnc(-c2ccc(C3(N)CCC3)cc2)c(-c2ccccc2)c1 | 82.6*
CCOC(=O)c1cc2ccccc2n1S(=O)(=O)c1ccc(C)cc1 | 31.6
O=C1c2ccccc2C(=O)C1c1ccc(Cl)cc1 | 14.8
C(=N\NC1=NCCN1)/c1c2ccccc2c(/C=N/NC2=NCCN2)c2ccccc12 | 5.6
Cn1cc(-n2cnc3c(NCc4nc5cc(Cl)c(Cl)cc5[nH]4)nc(N4CCOCC4)nc32)cn1 | 65.6
C[N+]1(C)[C@@H]2CC[C@H]1CC(OC(=O)C(CO)c1ccccc1)C2.[Br-] | 29.5
O=C(NCc1cccnc1)c1cc(-n2cnn(Cc3ccc(F)cc3)c2=O)n[nH]1 | 0.0
COc1ccc2c(c1)CN(C)CC2c1ccc(Cl)c(Cl)c1.Cl | 60.8
Cc1c(-c2ccc3cccnc3c2)nnn1-c1cccnc1F | 62.4
CN(CC(=O)c1ccccc1)c1cccc(C(=O)Nc2c(Br)cc(C(F)(C(F)(F)F)C(F)(F)F)cc2C(F)(F)F)c1F | 20.8
O=C1CN(CCN2CC(=O)N(CN3CCOCC3)C(=O)C2)CC(=O)N1CN1CCOCC1 | 31.0
CS(=O)(=O)NC(=O)c1cc(Oc2ccc(C(F)(F)F)cc2Cl)ccc1[N+](=O)[O-] | 29.9
COc1ccccc1[C@H](Cn1c(=O)n(C(C)(C)C(=O)O)c(=O)c2c(C)c(-c3ncco3)sc21)OC1CCOCC1 | 0.0
CN1CCN(C(=O)N[C@@H](Cc2ccccc2)C(=O)N[C@H](C=CS(=O)(=O)c2ccccc2)CCc2ccccc2)CC1 | 6.2
FC(F)F.NCCCC[C@@H]1NC(=O)[C@@H](Cc2ccc(O)cc2)NC(=O)[C@H](CC(=O)O)NC(=O)CNC(=O)[C@H](CCCN=C(N)N)NC1=O.O=C(O)C(F)(F)F.O=CO | 0.0
C=CCN1CCCC1CNC(=O)c1cc2n[nH]nc2cc1OC.Cl | 21.2
COc1cc(O)c2c(=O)c(OC)c(-c3ccc(OC)c(O)c3)oc2c1 | 47.3
CC(C)C(=O)N1CCN(c2ccc(NC(=O)c3cc4ccccc4o3)cc2Cl)CC1 | 58.8
COc1ccc(C(NC(=O)c2cnc(-c3cccnn3)[nH]c2=O)c2ccc(OC)cc2)cc1 | 63.5
CNc1nnc(SCc2ccccc2)s1 | 0.0
Clc1ccc(CO/N=C(\Cn2ccnc2)c2ccc(Cl)cc2Cl)c(Cl)c1.O=[N+]([O-])O | 0.0
Cc1nsc(-c2nnc3n2CCN(C(=O)c2ccc(F)cc2)[C@@H]3C)n1 | 2.6
O=C1c2ccccc2C(=O)c2c(O)ccc(O)c21 | 10.3
c1ccc(-c2nn3c(c2-c2ccnc4cc(OCCN5CCOCC5)ccc24)CCC3)nc1 | 63.0
Cc1ccc(NC(=O)c2ccc(CN3CCNCC3)cc2)cc1Nc1nccc(-c2cccnc2)n1 | 0.0
CS(=O)(=O)c1ccc(Oc2cc(F)cc(C#N)c2)c2c1C(O)C(F)C2 | 33.7
O=C(Oc1ccc([N+](=O)[O-])cc1)N1CCC(C(O)(c2ccc3c(c2)OCO3)c2ccc3c(c2)OCO3)CC1 | 70.4*
COc1cc(C=C(C(=O)/C=C/c2ccc(OC)c(OC)c2)C(=O)/C=C/c2ccc(OC)c(OC)c2)ccc1O | 94.5*
COc1ccc2cccc(CCNC(C)=O)c2c1.Cl | 4.0
COCCNc1nc2ccc(C#CC3(O)CCCCC3)cc2n1-c1ccnc(N)n1 | 34.4
O=c1cc(-c2ccc(O)cc2)oc2c([C@@H]3O[C@H](CO)[C@@H](O)[C@H](O)[C@H]3O)c(O)cc(O)c12 | 35.6
C[C@@H]1CCC[C@H](C)N1NC(=O)c1ccc(Cl)c(S(N)(=O)=O)c1 | 79.8*
CN(C)CCCN1c2ccccc2CCc2ccccc21.Cl | 0.0
CN(CCCOc1ccc(Cc2ccccc2)cc1)CCC(=O)O.Cl | 0.0
CC[C@@H](c1nc2cccc(F)c2c(=O)n1C1CC1)n1nc(-c2ccc(OC)c(F)c2)c2c(N)ncnc21 | 0.0
FC(F)(c1ccc2ncccc2c1)c1nnc2ccc(-c3ccncc3)nn12 | 44.8
COc1cc2c(cc1N1C[C@@H](C)N[C@@H](C)C1)N(C(=O)c1ccc(-c3ccc(-c4noc(C)n4)cc3C)cc1)CC2.Cl | 0.0
O=C(O)CCc1c(C(=O)O)[nH]c2cc(Cl)cc(Cl)c12 | 7.6
CN(C)c1ccc2nc3ccc(=[N+](C)C)cc-3sc2c1.[Cl-] | 6.2
COc1nsc(NC(=O)N2C[C@H]3CC(N(C)c4ncnc5[nH]ccc45)C[C@H]3C2)n1 | 24.9
CC(C)(C)NC(=O)[C@H]1CC[C@H]2[C@@H]3CC[C@H]4NC(=O)C=C[C@]4(C)[C@H]3CC[C@]12C | 22.9
CN(C)CCCSC(=N)N.Cl.Cl | 0.0
CNC(=O)[C@@H](c1ccccc1)N1CCc2cc(OC)c(OC)cc2[C@H]1CCc1ccc(C(F)(F)F)cc1 | 8.0
CCNc1cc(NC2CCC(O)CC2)nc(Nc2ccc3c(ccn3Cc3ccccc3)c2)n1 | 68.4
NCCc1c[nH]c2ccc(O)cc12 | 0.0
Cc1cc(-c2[nH]c3ccc(C4CCNCC4)cc3c2C(C)C)cc(C)n1 | 38.9
O=P(O)(O)COC[C@H]1O[C@@H](n2ncc3c(NC4CCCC4)nc(Cl)nc32)[C@H](O)[C@@H]1O | 62.0
O=C(NNC(=O)c1ccc(CNS(=O)(=O)c2ccc(F)c(Cl)c2)cc1)c1ccccc1 | 66.5
C[C@@H](C(=O)Nc1ccc(Cl)cc1)C1CCC(c2ccnc3ccc(F)cc23)CC1 | 77.1*
C=C(C(=O)OCC)C(O)c1ccccc1Cl | 0.0
Cc1noc(-c2ccc(-c3ccc(CC(=O)O)cc3)cc2)c1NC(=O)O[C@H](C)c1ccccc1Cl | 64.9
CC(C)C1CCC(C(=O)N[C@H](Cc2ccccc2)C(=O)O)CC1 | 0.0
COc1ccc(OC)c(-c2cc(=O)[nH]c(=S)n2CC(N)=O)c1 | 0.0
COc1cc2c(O[C@@H]3O[C@H](CO)[C@@H]4OC(C)(C)O[C@@H]4[C@H]3O)c3c(c(-c4ccc5c(c4)OCO5)c2cc1OC)C(=O)OC3 | 0.0
COc1cc(-c2c(C)cc(O)cc2O[C@@H]2O[C@H](CO)[C@@H](O)[C@H](O)[C@H]2O)oc(=O)c1 | 50.7
Nc1ncnc2c1nnn2[C@@H]1O[C@H](CO)[C@@H](O)[C@H]1O | 47.5
CCc1nc2c(C)nc(C)cc2n1-c1ccc(CCNC(=O)NS(=O)(=O)c2ccc(C)cc2)cc1 | 0.0
O=C1NC(=S)NC(=O)C1=Cc1ccc(-c2ccc(Cl)cc2Cl)o1 | 27.8
CN(C)C(=O)n1nnnc1Cc1ccc(-c2ccccc2)cc1 | 25.7
COc1ccccc1Oc1c(NS(=O)(=O)c2ccc(C)cn2)nc(-c2ccncc2)nc1OC | 0.0
COc1ccc2nc(S(=O)Cc3ncc(C)c(OC)c3C)[nH]c2c1.[Na] | 0.0
C[C@@H](NC(=O)c1ccc(Cl)cc1)C1CCC(c2ccnc3ccc(F)cc23)CC1 | 61.0
CCCCCCCCCCCCCCCCCCCCC | 0.0
Cc1cc(Nc2nn(-c3ccccc3)c(=O)c3ccccc23)n[nH]1 | 0.0
CC(C)(C)OC(=O)N1CC(Nc2nc3ncccc3c(=O)[nH]2)C1 | 46.2
CN(C)c1ncnc2c1ncn2[C@@H]1O[C@H](CO)[C@@H](N)[C@H]1O | 0.0
C[C@@H](Oc1cc(-n2cnc3ccc(CN4CCN(C)CC4)cc32)sc1C(N)=O)c1ccccc1C(F)(F)F | 18.6
Cn1ncc2cc(-c3cnc(N)c(Cl)c3N3CCC4(CCNC4=O)CC3)ccc21 | 25.9
CCOc1nc2cccc(C(=O)O)c2n1Cc1ccc(-c2ccccc2-c2nn[nH]n2)cc1 | 0.0
CC(=O)C1=C(O)C=C2Oc3c(C(C)=O)c(O)c(C)c(O)c3[C@]2(C)C1=O | 66.8
COc1ccc(CCO[C@@H]2CCCC[C@H]2N2CC[C@@H](O)C2)cc1OC.Cl | 73.1*
Cc1cc(C#N)cnc1C(=O)Nc1ccc(F)c([C@]2(C)CO[C@@](C)(C(F)(F)F)C(N)=N2)c1 | 0.0
C=C1C(=O)O[C@@H]2[C@H]3C(C)=CC[C@@]34O[C@@]4(C)CC[C@@H]12 | 11.4
CC(=O)N1CCC(c2nccnc2Oc2ccc(C(=O)c3nc4ccccc4[nH]3)cc2)CC1 | 12.7
CCOC(=O)C[N+]1(C)CC[C@@H](OC(=O)[C@](O)(c2ccccc2)C2CCCC2)C1.[Br-] | 40.8
CCOC(=O)CCNC(=S)NCCCC[C@H](NC(=O)OCc1ccccc1)C(=O)N[C@@H](Cc1c[nH]c2ccccc12)C(=O)NC(C)C | 76.8*
COC(=O)N[C@H](C(=O)N1CCC[C@H]1c1ncc(-c2ccc(-c3ccc(-c4cnc([C@H]5CCCN5C(=O)[C@H](NC(=O)OC)C(C)C)[nH]4)cc3)c3c2OCO3)[nH]1)C(C)C.Cl.Cl | 0.0
CCCCOc1c(OC)cc(C(=O)NCC2(N(C)C)CCOCC2)cc1OC.Cl | 0.0
C=CC(=O)N1CCC[C@@H](n2nc(-c3ccc(Oc4ccccc4)cc3)c(C(N)=O)c2N)C1 | 0.0
CC1(C)OC[C@@H](COC(=O)CCc2ccc(OC[C@@H](O)CNCCNC(=O)N3CCOCC3)cc2)O1.Cl | 74.3*
O=C(ON=C1c2ccccc2-c2nc3ccccc3nc21)c1ccco1 | 68.9
O=C1Nc2ccccc2C1=O | 72.3*
COc1cc([C@H]2OC[C@H]3[C@@H]2CO[C@@H]3c2ccc(O)c(OC)c2)ccc1O | 58.4
C[C@H](CC(=O)C[C@@H](C)[C@H]1C[C@H](O)[C@@]2(C)C3=C(C(=O)C[C@]12C)[C@@]1(C)CC[C@H](O)C(C)(C)[C@@H]1C[C@@H]3O)C(=O)O | 0.0
COc1cc(O)c(CC=C(C)C)c(O)c1C(=O)/C=C/c1ccc(O)cc1 | 55.2
OCc1ccc(-c2ccc(-c3ccc(CO)s3)o2)s1 | 0.0
COc1cccc2oc(-c3ccccc3)cc(=O)c12 | 0.0

The last 16 compounds once more:

Structure (SMILES) | inhibition [%]
Cc1cc(C#N)cnc1C(=O)Nc1ccc(F)c([C@]2(C)CO[C@@](C)(C(F)(F)F)C(N)=N2)c1 | 0.0
C=C1C(=O)O[C@@H]2[C@H]3C(C)=CC[C@@]34O[C@@]4(C)CC[C@@H]12 | 11.4
CC(=O)N1CCC(c2nccnc2Oc2ccc(C(=O)c3nc4ccccc4[nH]3)cc2)CC1 | 12.7
CCOC(=O)C[N+]1(C)CC[C@@H](OC(=O)[C@](O)(c2ccccc2)C2CCCC2)C1.[Br-] | 40.8
CCOC(=O)CCNC(=S)NCCCC[C@H](NC(=O)OCc1ccccc1)C(=O)N[C@@H](Cc1c[nH]c2ccccc12)C(=O)NC(C)C | 76.8*
COC(=O)N[C@H](C(=O)N1CCC[C@H]1c1ncc(-c2ccc(-c3ccc(-c4cnc([C@H]5CCCN5C(=O)[C@H](NC(=O)OC)C(C)C)[nH]4)cc3)c3c2OCO3)[nH]1)C(C)C.Cl.Cl | 0.0
CCCCOc1c(OC)cc(C(=O)NCC2(N(C)C)CCOCC2)cc1OC.Cl | 0.0
C=CC(=O)N1CCC[C@@H](n2nc(-c3ccc(Oc4ccccc4)cc3)c(C(N)=O)c2N)C1 | 0.0
CC1(C)OC[C@@H](COC(=O)CCc2ccc(OC[C@@H](O)CNCCNC(=O)N3CCOCC3)cc2)O1.Cl | 74.3*
O=C(ON=C1c2ccccc2-c2nc3ccccc3nc21)c1ccco1 | 68.9
O=C1Nc2ccccc2C1=O | 72.3*
COc1cc([C@H]2OC[C@H]3[C@@H]2CO[C@@H]3c2ccc(O)c(OC)c2)ccc1O | 58.4
C[C@H](CC(=O)C[C@@H](C)[C@H]1C[C@H](O)[C@@]2(C)C3=C(C(=O)C[C@]12C)[C@@]1(C)CC[C@H](O)C(C)(C)[C@@H]1C[C@@H]3O)C(=O)O | 0.0
COc1cc(O)c(CC=C(C)C)c(O)c1C(=O)/C=C/c1ccc(O)cc1 | 55.2
OCc1ccc(-c2ccc(-c3ccc(CO)s3)o2)s1 | 0.0
COc1cccc2oc(-c3ccccc3)cc(=O)c12 | 0.0